Earlier results as cited in patent US20250127175A1, “ANTIMICROBIAL POLYMER COMPOSITIONS, ANTIMICROBIAL POLYMER ARTICLES, AND METHODS OF MAKING THE SAME” (CORNING INCORPORATED, priority 2021, published 2025).

Conditions: water-soluble defined as minimum of 20 grams in 100 milliliters of water at 25° C.

For CCCCn1cc[n+](C)c1.[Br-] [1-butyl-3-methylimidazolium bromide], the “water solubility (in words)” value is given as “water soluble”.
